Values of other authors in patent publication US20260345555A1, “Compositions and Methods for Protecting Salivary Glands from Off-Target Radiation Damage” (University of Rochester, priority 2022, published 2026).

Settings: in vivo; cited from earlier work

## COc1ccc2[nH]cc(CCNC(C)=O)c2c1 [Melatonin]
  bioavailability: poor bioavailability
